Ab-14 heavy chain CDR variants: yeast mating affinities

Values reported by Li et al. 2023, doi:10.1038/s41467-023-39022-2 (FLAb copy).

Target peptide (SARS-CoV-2 spike, HR2 region): PDVDLGDISGINAS

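The starting antibody came from a phage panning campaign against this peptide. These sequences belong to a second round, designed from the earlier measurements on random variants of the parent. Their group label is 14H_GPLM_Gen (GPLM: also part of the Gaussian process libraries; Gen: genetic algorithm; a sequence that several methods proposed may carry one label only). The assay is AlphaSeq: two haploid yeast populations carry antibody and antigen on their surface. After mating in shaken culture at 30 °C for 16 h, diploids were selected and their barcode pairs sequenced. Each replicate has its own calibration line, from reference interactions of the BCL2 family. Mating was done six times.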

Parent: Ab-14, a human scFv built as VH, the linker GGGGSGGGGSGGGGS, VL. Only the CDRs of the heavy chain vary.
VH: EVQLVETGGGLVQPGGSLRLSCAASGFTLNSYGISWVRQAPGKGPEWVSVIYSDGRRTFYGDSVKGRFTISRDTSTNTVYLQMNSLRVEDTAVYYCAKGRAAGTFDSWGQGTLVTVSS
VL: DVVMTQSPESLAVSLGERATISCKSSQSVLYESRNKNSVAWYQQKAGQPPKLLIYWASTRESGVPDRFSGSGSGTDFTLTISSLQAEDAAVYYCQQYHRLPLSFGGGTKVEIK

Each variant is given by its three heavy chain CDRs, as the data file delimits them; those of the parent are GFTLNSYGIS, VIYSDGRRTFYGDSVK, GRAAGTFDS. The read-out is the apparent dissociation constant on a log10 scale (nM): the lower, the stronger. Where no diploid with the target was found in that replicate, the entry reads "n.d.": below detection, most likely a poor binder, though not proof of it. The range of this assay differs from that of the first round, and the authors advise against merging the two. The authors' rule: three or more of the six replicates give a measured affinity, fewer mean a poor binder. Background: pairings of all heavy chain designs with three empty control strains gave a value in 1% of cases (median 2.08, 5th percentile 0.84). Values in that range, when seen in few replicates, are hard to tell from nonspecific mating. Also given: how often the same scFv was detected with the empty control strains, with their mean in brackets.

CDR-H1,CDR-H2,CDR-H3,"log10 Kd, replicates",signal with controls
GYTLESYGIS,VIYADGRRTFYGDSVK,GRAAGTFDS,0.92 0.69 0.41 1.46 0.92 1.30,0 of 18
GFNLNSYGIS,VIYSDGRRTFYSDSVK,GQAAGTFDS,1.20 0.67 0.62 0.17 0.97 0.92,0 of 18
GFSLNNYGIS,VIYSDGRRTFYGDSVK,GRNAGTFDS,-0.15 -0.30 0.93 0.18 1.34 0.31,0 of 18
GFNLNSYGIS,VIYSDGRRTFYGDHVK,GRTAGTFDS,1.16 n.d. 0.79 1.02 n.d. 0.28,0 of 18
GFTLNEYGIS,VIYSDGIRTFYGDSVK,GRAAGTFDT,0.43 0.13 0.34 0.28 0.09 0.52,1 of 18 (2.37)
GFTLDSYGIS,VIYSDGRRTFYSDSVK,GQAAGTFDS,0.71 n.d. n.d. 0.94 n.d. 2.58,0 of 18
GFTLESYGIS,VIYSDGRRTFYADSVK,GRAGGTFDS,0.89 1.06 n.d. n.d. 0.59 0.63,0 of 18
GFDLNSYGIS,VIYSDGRRTFYGDSVK,GRTAGTFDD,-0.50 -0.14 -1.25 -0.45 -0.69 -0.43,1 of 18 (1.14)
GFSLNSYGIS,VIYSDGRRTFYDDSVK,GRTAGTFDS,0.71 0.65 0.52 3.11 -0.41 0.79,0 of 18
GFSLNDYGIS,VIYSDGRRTFYGDSVK,GRTAGTFDE,0.42 0.11 -0.01 0.51 -0.02 0.00,0 of 18
GFTLNSYGIS,VIYSDGVRTFYADSVK,GEAAGTFDS,n.d. 1.59 n.d. n.d. 4.17 2.73,0 of 18
GFGLNEYGIS,VIYSDGRRTFYTDSVK,GRTAGTFDS,n.d. -0.48 -1.54 -0.88 -0.55 -1.57,0 of 18
GFKLNSYGIS,VIYADGRRTFYGDSVK,GQAAGTFDS,0.20 -0.03 0.21 -0.01 0.05 0.05,0 of 18
GFDLNSYGIS,VIYSDGRRTFYGDSVK,GNEAGTFDS,0.03 0.01 0.06 -0.04 -0.11 0.14,1 of 18 (1.67)
GFSLNSYGIS,VIYSDGHRTFYGDSVK,GRTAGTFDS,1.10 1.16 0.71 0.27 1.20 0.49,0 of 18
GFTLNEYGIS,VIYSDGRRTFYGDSVK,GRTAGTFDL,0.36 0.54 0.41 0.90 0.29 0.66,0 of 18
GFELNNYGIS,VIYSDGRRTFYGDSVK,GKAAGTFDS,0.70 0.64 1.22 0.74 0.15 0.46,0 of 18
GFSLNSYGIS,VIYSDGRRTFYSDSVK,GSTAGTFDS,-0.03 -0.22 -0.32 -0.19 -0.33 -0.21,0 of 18
GFTLNEYGIS,VIYSDGRRTFYGDSVK,GQAAGTFDT,0.32 0.50 0.50 0.20 0.23 0.62,0 of 18
SFTLNSYGIS,VIYADGRRTFYGDSVK,GRTAGTFDS,0.71 0.61 0.47 0.60 0.96 0.76,0 of 18
GFDLNSYGIS,VIYSDGRRTFYGDSVK,GRDAGTFDS,1.29 0.82 1.67 2.15 0.46 0.81,0 of 18
GFELESYGIS,VIYSDGRRTFYADSVK,GRAAGTFDS,0.75 0.57 0.46 0.29 0.33 0.43,1 of 18 (1.90)
GFSLNSYGIS,VIYSDGRRTFYVDSVK,GNTAGTFDS,0.06 0.68 -0.23 0.39 1.21 0.43,0 of 18
GFTLSSYGIS,VIYADGRRTFYGDSVK,GRAAGTFDS,1.58 n.d. 2.88 1.18 n.d. 1.61,1 of 18 (1.78)
GFSLNSYGIS,VIYADGRRTFYGDSVK,GQAAGTFDT,0.80 -0.59 -0.32 -0.38 -0.04 -0.51,0 of 18
GFELNEYGIS,VIYSDGRRTFYADSVK,GRTAGTFDS,0.51 -0.10 -0.12 0.93 -0.23 0.06,0 of 18
GFSLNSYGIS,VIYSDGRRTFYSDSVK,GQAAGTFDL,1.20 1.25 0.81 0.80 0.71 1.36,2 of 18 (2.41)
GFSLNSYGIS,VIYSDGRRTFYGDSVK,GRVAGTFDK,0.33 0.75 0.11 -0.22 0.36 -0.21,0 of 18
EFNLNSYGIS,VIYSDGRRTFYADSVK,GRTAGTFDS,1.10 n.d. 0.89 0.01 0.27 0.52,0 of 18
GFSLNSYGIS,VIYSDGRRTFYKDSVK,GQAAGTFDT,1.69 1.46 n.d. 1.63 1.72 2.54,1 of 18 (1.75)
GFTLNSYGIS,VIYSDGRRTFYGDDVK,GRTAGTFDS,1.27 1.86 1.68 n.d. n.d. 0.99,0 of 18
GFTLNSYGIS,VIYSDGRRTFYADSVK,GQAAGTFDL,n.d. n.d. n.d. n.d. n.d. n.d.,0 of 18
GFTLNSYGIS,VIYSDGKRTFYADSVK,GRTAGTFDS,0.66 0.53 0.22 0.43 0.54 0.44,0 of 18
GFSLNDYGIS,VIYSDGRRTFYSDSVK,GRTAGTFDS,-0.39 -0.01 -0.25 -0.50 -0.57 -0.07,0 of 18
GFSLNSYGIS,VIYADGRRTFYGDSVK,GRAAGTFDM,0.36 0.19 0.17 0.05 -0.05 0.05,0 of 18
GFKLNSYGIS,VIYSDGRRTFYGDSVK,GREAGTFDT,2.02 0.70 0.55 0.25 1.41 0.69,0 of 18
MFSLNSYGIS,VIYSDGRRTFYADSVK,GNAAGTFDS,n.d. n.d. n.d. 3.13 n.d. n.d.,1 of 18 (0.85)
GFWLNEYGIS,VIYSDGRRTFYADSVK,GRAAGTFDS,0.01 0.04 0.42 0.50 0.37 0.33,0 of 18
GFDLNSYGIS,VIYSDGKRTFYGDSVK,GSAAGTFDS,0.31 0.34 0.19 -0.04 -0.04 0.29,0 of 18
GFNLNSYGIS,VIYSDGRRTFYADSVK,GQVAGTFDS,0.93 0.40 0.73 0.38 0.38 0.43,0 of 18
KFTLNSYGIS,VIYADGRRTFYGDSVK,GRAAGTFDS,0.35 0.17 -0.15 -0.29 0.26 0.03,1 of 18 (1.52)
GFSLNEYGIS,VIYSDGRRTFYGDSVK,GRNAGTFDS,-0.05 -0.33 -0.01 -0.52 -0.09 -0.25,0 of 18
GFSLNSYGIS,VIYSDGRRTFYADQVK,GEAAGTFDS,0.56 0.44 0.77 0.63 -0.11 0.28,0 of 18
GFTLNSYGIS,VIYADGRRTFYGDSVK,GHAAGTFDF,0.47 0.75 0.59 0.15 0.79 0.60,1 of 18 (1.64)
GFTLNEYGIS,VIYSDGRRTFYGDSVK,GRNAGTFDT,0.14 0.42 0.36 0.26 0.08 0.05,0 of 18
GFTLNDYGIS,VIYSDGRRTFYGDAVK,GRTAGTFDS,n.d. n.d. 0.84 n.d. n.d. n.d.,0 of 18